How the values were obtained:
[1] = system: U937; assay: CD33 cell killing experiment by MTS method, U937; type: cell-based, Human; conditions: U937, CD33 moderate expression, 5 days, read-out: Test drug IC50
Protocol: (§1) Pharmacodynamic test at cellular level: cell plating was performed on a 96-well plate in a certain density. After the cells adhered to the wall (usually taking at least 4 h), a series of drugs in several folds of dilution were added to each well plate to act for a certain period of time, for killing the cells. At the end of action of the drugs, a certain amount of MTS was added to react at 37° C. under 5% CO2 for 1-4 h. After color development using the MTS reagent, the OD 490 nm absorbance value was detected using a microplate reader, and then the IC50 for cell killing was analyzed and calculated.
(§2) Before addition, according to the concentration of each test sample, a drug (5×mother liquor concentration) was prepared using a preheated 1% FBS culture medium according to the initial concentration of 5.0 μM, and then diluted according to 10 folds of gradient concentration, totaling 8 detection points, followed by standing for later use. During the preparation, each concentration was uniformly mixed using an oscillator, specifically, oscillating for 2-3 sec at a time, with an interval of 1 sec, and then oscillating again, repeating 2-3 times.
(§3) The final concentration of the antibody and the antibody conjugated drug was 0 (Vehicle), 0.6 pM, 4.25 pM, 29.75 pM, 0.21 nM, 1.46 nM, 10.20 nM, 71.43 nM, 500 nM.
(§4) • 1) Cell revival: after preheating in a 37° C.′ water bath, 9 mL of the culture medium was taken and put in a centrifuge tube for later use; the cells were taken out from liquid nitrogen, immediately quickly shaked at 37° C.′ to fully thaw, then transferred into the centrifuge tube, and centrifuged at 1000 rpm for 3 min at room temperature: the supernatant was discarded, and the precipitate was re-suspended with 1 mL of complete culture medium, where the process should be gentle, to prevent bubbles from being blown out, thereby reducing damage to the cells; the cells were transferred into a culture flask, and cultivated in a cell incubator at 37° C., 5% CO2 and 95% relative humidity. […]

Protein sequences, listed by entry. Tags and fused reporters are not part of them. Residues count along the entry.
UniProt P20138, 18-364: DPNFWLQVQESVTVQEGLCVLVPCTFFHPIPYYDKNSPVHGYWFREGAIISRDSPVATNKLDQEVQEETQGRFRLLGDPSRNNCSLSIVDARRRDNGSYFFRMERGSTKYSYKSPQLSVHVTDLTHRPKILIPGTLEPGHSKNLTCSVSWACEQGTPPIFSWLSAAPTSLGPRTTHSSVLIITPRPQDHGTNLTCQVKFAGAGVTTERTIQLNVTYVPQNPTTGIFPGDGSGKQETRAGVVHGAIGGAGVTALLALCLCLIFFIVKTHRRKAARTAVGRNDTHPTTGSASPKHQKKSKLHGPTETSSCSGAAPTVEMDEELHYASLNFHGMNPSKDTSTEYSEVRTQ

[2] = system: HL-60; assay: CD33 cell killing experiment by MTS method, HL-60; type: cell-based, Human; conditions: HL-60, CD33 moderate expression, 5 days, read-out: Test drug IC50
Protocol: as §1, §2, §3, §4

[3] = biological target: recombinant human CD33 protein (Homo sapiens, UniProt P20138); assay: Binding of anti-CD33 antibody-drug conjugate to recombinant human CD33 protein by ELISA; conditions: in words, 3-fold gradient from 2 μg/mL
Protocol: The binding ability of antibody to antigen can be preliminarily judged by ELISA. Here, recombinant human CD33 protein was immobilized on an enzyme strip, and tested with the addition of a series of concentration gradients of CD33 antibody. • 1. Coating: coating with CD33 diluted to 0.5 ng/ml, using 1×PBS, at 100 μL per well, at 4° C. overnight. • 2. Plate washing: washing the plate with a plate wash buffer (1×PBS+0.05% Tween 20) 3 times, at 200 μL per well, while standing for 1 min each time. • 3. Sealing: after the 3rd patting-dry of the wash buffer, sealing with a sealing buffer (1/PBS+0.05% Tween20+1% BSA), at 200 μL per well, at 37° C. for 1 h. • 4. Plate washing: washing the plate with the plate wash buffer 3 times, at 200 μL per well, while standing for 1 min each time. • 5. Primary antibody loading: diluting the antibody-drug conjugate (same as Test example 1) at a 3-fold gradient from 2 μg/mL using a sample diluent (1×PBS+0.05% Tween20+1% BSA); washing the plate with the plate wash buffer 3 times, at 200 μL per well, while standing for 1 min each time. • 6. Secondary antibody loading: diluting Solarbio rabbit anti-human antibody at a ratio of 1:10000 with an assay buffer (1<PBS+0.05% Tween20+1% BSA) to 100 μL per well, while standing at 37° C. for 1 h. • 7. Plate washing: washing the plate with the plate wash buffer 3 times, at 200 μL per well, while standing for 1 min each time. • 8. Reading: after 7 min of color development with the addition of a TMB color development liquid (50 μL per well), adding 2M H2SO4 (50 μL per well) to terminate it. Plate reading using a microplate reader at 450 nm.

B1: ANTI-CD33-R01-1 (2) - Ex01 (8) (conjugate)
light: DIQLTQSPSTLSASVGDRVTITCRASESLDNYGIRFLTWFQQKPGKAPKLLMYAASNQGSGVPSRFSGSGSGTEFTLTISSLQPDDFATYYCQQTKEVPWSFGQGTKVEVKRTVAAPSVFIFPPSDEQLKSGTASVVCLLNNFYPREAKVQWKVDNALQSGNSQESVTEQDSKDSTYSLSSTLTLSKADYEKHKVYACEVTHQGLSSPVCTKSFNRGEC
heavy: EVQLVQSGAEVKKPGSSVKVSCKASGYTITDSNIHWVRQAPGQSLEWIGYIYPYNGGTDYNQKFKNRATLTVDNPTNTAYMELSSLRSEDTAFYYCVNGNPWLAYWGQGTLVTVSSASTKGPSVFPLAPSSKSTSGGTAALGCLVKDYFPEPVTVSWNSGALTSGVHTFPAVLQSSGLYSLSSVVTVPSSSLGTQTYICNVNHKPSNTKVDKRV[human IgG1 Fc not spelt out]
IC50 [1]: 6.63 nM | IC50 [2]: 2.22 nM | binding ability to recombinant human CD33 protein, compared with naked anti-CD33 antibody [3]: basically the same

From patent publication US20260137794A1, “LIGAND-DRUG CONJUGATE AND USE THEREOF” (SYSTIMMUNE, INC., priority 2022, published 2026)
